Measurements as given in patent US12559509B1, “Citrate coordination complex of an orally-delivered beta-lactamase inhibitor and uses thereof” (priority 2023, dated 2026).

Experiment: Chemical stability of drug substance controls and binary blend, HPLC purity
Assay type: physicochemical
Details: in binary Blend, 40° C. Storage, 5 weeks
Experimental: Chemical stability of the binary blend was confirmed by monitoring HPLC purity (% peak area) of each drug substance and a binary blend that were put on stability at 25° C. and 40° C.

For `Nc1nc(/C(=C/CC(=O)O)C(=O)N[C@@H]2C(=O)N3C(C(=O)O)=CCS[C@H]23)cs1` [Ceftibuten dihydrate, reference compound], the “HPLC purity (% peak area)” value was 98.2%.
